The values that follow come from patent US10287286B2, “Compounds” (Takeda Pharmaceutical Company Limited, priority 2015, dated 2019).

Protein sequences, listed by entry. Tags and fused reporters are not part of them.
UniProt Q96KS0, whole entry: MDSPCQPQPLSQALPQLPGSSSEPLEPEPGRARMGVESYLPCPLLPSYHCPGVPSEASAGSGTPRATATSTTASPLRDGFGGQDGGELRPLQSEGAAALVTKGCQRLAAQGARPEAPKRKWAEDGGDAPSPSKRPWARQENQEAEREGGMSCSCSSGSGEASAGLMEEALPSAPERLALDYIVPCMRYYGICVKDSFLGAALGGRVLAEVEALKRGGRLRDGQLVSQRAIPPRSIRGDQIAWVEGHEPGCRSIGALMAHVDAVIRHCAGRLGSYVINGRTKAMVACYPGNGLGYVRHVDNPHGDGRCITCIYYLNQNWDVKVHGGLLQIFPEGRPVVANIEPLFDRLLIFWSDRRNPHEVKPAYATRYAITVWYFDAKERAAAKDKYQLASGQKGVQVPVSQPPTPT

As a reminder, the IC50 is the concentration needed to halve the response being measured. A lower IC50 goes with inhibition by little substance.

The assay deals with PHD1 enzyme (residues 1-407) (Homo sapiens (Human), UniProt Q96KS0). The experiment in a line: PHD1 Enzyme Assay (UPLC-MS detection of hydroxylated peptide product). Type of assay: biochemical. To be noted: 20 nM, 60 min pre-incubation at room temperature.

`Cc1nc(C#N)ccc1-c1cccc2ncnn12` [Example 28, 6-methyl-5-{[1,2,4]triazolo[1,5-a]pyridin-5-yl}pyridine-2-carbonitrile] came in with an IC50 of 93 nM.
`CC(C)NCc1cc(-c2ccc(C#N)cc2)n2ncnc2c1` [Example 183, 4-(7-{[(propan-2-yl)amino]methyl}-[1,2,4]triazolo[1,5-a]pyridin-5-yl)benzonitrile] had an IC50 of 1500 nM.
`CC(=O)N1CCCC(Nc2cc(-c3ccc(C#N)cc3)n3ncnc3n2)C1` (stereo not drawn) [Example 79, 4-{5-[(1-acetylpiperidin-3-yl)amino]-[1,2,4]triazolo[1,5-a]pyrimidin-7-yl}benzonitrile] came in with an IC50 of 275 nM.
Take `CN(C)CCOc1cc(-c2ccc(C#N)c(F)c2)n2ncnc2c1` [Example 129, 4-{7-[2-(dimethylamino)ethoxy]-[1,2,4]triazolo[1,5-a]pyridin-5-yl}-2-fluorobenzonitrile]: the IC50 was determined as 299 nM.
As to `COCCCNc1cc(-c2ccc(C#N)cc2)n2ncnc2c1` [Example 111, 4-{7-[(3-methoxypropyl)amino]-[1,2,4]triazolo[1,5-a]pyridin-5-yl}benzonitrile], the IC50 turned out to be 247 nM.
With `Cc1cc(C#N)c(F)cc1-c1ccnc2ncnn12` [Example 208, 2-fluoro-5-methyl-4-{[1,2,4]triazolo[1,5-a]pyrimidin-7-yl}benzonitrile] the figure was 2530 nM; with `N#Cc1ccc(-c2cc(C(=O)NCC3CC3)cc3ncnn23)cc1` [Example 67, 5-(4-cyanophenyl)-N-(cyclopropylmethyl)-[1,2,4]triazolo[1,5-a]pyridine-7-carboxamide], 103 nM.
With `N#Cc1ccc(-c2cc(N3CCCC3)nc3ncnn23)cc1` [Example 83, 4-[5-(pyrrolidin-1-yl)-[1,2,4]triazolo[1,5-a]pyrimidin-7-yl]benzonitrile], the IC50 amounted to 406 nM.
With `N#Cc1ccc(-c2cc(NC(=O)C3CCCOC3)cc3ncnn23)cc1F` (stereo not drawn) [Example 164, N-[5-(4-cyano-3-fluorophenyl)-[1,2,4]triazolo[1,5-a]pyridin-7-yl]oxane-3-carboxamide] the figure was 131 nM.
The compound `N#Cc1ccc(-c2cc(CO)cc3ncnn23)cc1` [Example 39, 4-(7-(hydroxymethyl)-[1,2,4]triazolo[1,5-a]pyridin-5-yl)benzonitrile] registered an IC50 of 223 nM.
Compound `Cc1cc(C#N)ccc1-c1cc(NC(=O)C2CC2)cc2ncnn12` [Example 250, N-[5-(4-Cyano-2-methylphenyl)-[1,2,4]triazolo[1,5-a]pyridin-7-yl]cyclopropanecarboxamide] registered an IC50 of 88 nM.
`Cc1cc(C#N)cnc1-c1cccc2ncnn12` [Example 32, 5-methyl-6-{[1,2,4]triazolo[1,5-a]pyridin-5-yl}pyridine-3-carbonitrile] showed a half-maximal inhibitory concentration (IC50) of 506 nM.
`Cc1cc(C#N)ccc1-c1cc(NC(=O)C(C)(C)O)cc2ncnn12` [Example 240, N-[5-(4-Cyano-2-methylphenyl)-[1,2,4]triazolo[1,5-a]pyridin-7-yl]-2-hydroxy-2-methylpropanamide]: the IC50 was determined as 460 nM.
Take `CC(C)(C)OC(=O)Nc1cc(-c2ccc(C#N)c(F)c2)n2ncnc2c1` [Example 124, tert-butyl N-[5-(4-cyano-3-fluorophenyl)-[1,2,4]triazolo[1,5-a]pyridin-7-yl]carbamate]: the IC50 was found to be 49 nM.
To `CC1CCN(c2cc(-c3ccc(C#N)cc3)n3ncnc3n2)C1` (stereo not drawn) [Example 90, 4-[5-(3-methylpyrrolidin-1-yl)-[1,2,4]triazolo[1,5-a]pyrimidin-7-yl]benzonitrile] belongs 574 nM.
With `CN1CCC(OC(=O)Nc2cc(-c3ccc(C#N)c(F)c3)n3ncnc3c2)CC1` [Example 197, 1-methylpiperidin-4-yl N-[5-(4-cyano-3-fluorophenyl)-[1,2,4]triazolo[1,5-a]pyridin-7-yl]carbamate] the figure was 53 nM.
`N#Cc1ccc(-c2cc(NC(=O)CC3COC3)cc3ncnn23)cc1F` [Example 173, N-[5-(4-cyano-3-fluorophenyl)-[1,2,4]triazolo[1,5-a]pyridin-7-yl]-2-(oxetan-3-yl)acetamide]: half-maximal inhibition (IC50) was put at 63 nM.
With `CC(C)CCNc1cc(-c2ccc(C#N)cc2)n2ncnc2n1` [Example 95, 4-{5-[(3-methylbutyl)amino]-[1,2,4]triazolo[1,5-a]pyrimidin-7-yl}benzonitrile] the figure was 61 nM.
`Cc1cc(C#N)ccc1-c1cc(NC(=O)CO)cc2ncnn12` [Example 238, N-[5-(4-Cyano-2-methylphenyl)-[1,2,4]triazolo[1,5-a]pyridin-7-yl]-2-hydroxyacetamide] yielded an IC50 of 96 nM.
In turn, `N#Cc1ccc(-c2cc(N3CCNCC3)cc3ncnn23)cc1` [Example 230, 4-[7-(Piperazin-1-yl)-[1,2,4]triazolo[1,5-a]pyridin-5-yl]benzonitrile] registered an IC50 of 925 nM.
The compound `N#Cc1ccc(-c2cc(NC(=O)c3ccccc3)cc3ncnn23)cc1` [Example 123, N-[5-(4-cyanophenyl)-[1,2,4]triazolo[1,5-a]pyridin-7-yl]benzamide] registered an IC50 of 151 nM.
`Cn1cc(CNC(=O)c2cc(-c3ccc(C#N)cc3)n3ncnc3c2)cn1` [Example 62] came in with an IC50 of 490 nM.
`N#Cc1ncc(-c2cccc3ncnn23)cc1F` [Example 24, 3-fluoro-5-{[1,2,4]triazolo[1,5-a]pyridin-5-yl}pyridine-2-carbonitrile] registered an IC50 of 99 nM.
`N#Cc1ccc(-c2cc(NCC3(c4ccccc4)COC3)cc3ncnn23)cc1F` [Example 128, 2-fluoro-4-(7-{[(3-phenyloxetan-3-yl)methyl]amino}-[1,2,4]triazolo[1,5-a]pyridin-5-yl)benzonitrile] displayed an IC50 of 215 nM.
In turn, `N#Cc1ccc(-c2cc(O)cc3ncnn23)cc1F` [Example 219, 2-Fluoro-4-{7-hydroxy-[1,2,4]triazolo[1,5-a]pyridin-5-yl}benzonitrile] came in with an IC50 of 30 nM.
As to `CN(C)CCCOC(=O)Nc1cc(-c2ccc(C#N)c(F)c2)n2ncnc2c1` [Example 198, 3-(dimethylamino)propyl N-[5-(4-cyano-3-fluorophenyl)-[1,2,4]triazolo[1,5-a]pyridin-7-yl]carbamate], the IC50 is 109 nM.
The compound `N#Cc1ccc(-c2cc(C(=O)NCCc3cccc(Cl)c3)cc3ncnn23)cc1` [Example 48, N-[2-(3-chlorophenyl)ethyl]-5-(4-cyanophenyl)-[1,2,4]triazolo[1,5-a]pyridine-7-carboxamide] returned an IC50 of 206 nM.
To `N#Cc1ccc(-c2cc(NC(=O)CC(F)(F)F)cc3ncnn23)cc1F` [Example 153, N-[5-(4-cyano-3-fluorophenyl)-[1,2,4]triazolo[1,5-a]pyridin-7-yl]-3,3,3-trifluoropropanamide] belongs 28 nM; to `N#Cc1ccc(-c2cc(NCCN3CCCC3=O)nc3ncnn23)cc1` [Example 81, 4-(5-{[2-(2-oxopyrrolidin-1-yl)ethyl]amino}-[1,2,4]triazolo[1,5-a]pyrimidin-7-yl)benzonitrile], 884 nM.
Compound `N#Cc1ccc(-c2cc(NC(=O)C3CC(F)C3)cc3ncnn23)cc1F` (stereo not drawn) [Example 172, N-[5-(4-cyano-3-fluorophenyl)-[1,2,4]triazolo[1,5-a]pyridin-7-yl]-3-fluorocyclobutane-1-carboxamide] gave an IC50 of 220 nM.
Turning to `COCCNc1cc(-c2ccc(C#N)cc2F)n2ncnc2c1` [Example 246, 3-Fluoro-4-{7-[(2-methoxyethyl)amino]-[1,2,4]triazolo[1,5-a]pyridin-5-yl}benzonitrile], the IC50 was determined as 65 nM.
Turning to `CNC(=O)C1CCCN1c1cc(-c2ccc(C#N)cc2)n2ncnc2n1` (stereo not drawn) [Example 74, 1-[7-(4-cyanophenyl)-[1,2,4]triazolo[1,5-a]pyrimidin-5-yl]-N-methylpyrrolidine-2-carboxamide], half-maximal inhibition (IC50) required 184 nM.
To `COC(=O)c1cc(-c2ccc(C#N)cc2)n2ncnc2c1` [Example 40, Methyl 5-(4-cyanophenyl)-[1,2,4]triazolo[1,5-a]pyridine-7-carboxylate] belongs 323 nM; to `N#Cc1ccc(-c2cc(CNC3CCOC3)cc3ncnn23)cc1` (stereo not drawn) [Example 192, 4-(7-{[(oxolan-3-yl)amino]methyl}-[1,2,4]triazolo[1,5-a]pyridin-5-yl)benzonitrile], 1300 nM.
To `CC(=O)Nc1cc(-c2cnc(C#N)cc2C)n2ncnc2c1` [Example 247, N-[5-(6-Cyano-4-methylpyridin-3-yl)-[1,2,4]triazolo[1,5-a]pyridin-7-yl]acetamide] belongs 80 nM; to `N#Cc1ccc(-c2cc(CNC(=O)C3CC3)cc3ncnn23)cc1` [Example 226, N-{[5-(4-Cyanophenyl)-[1,2,4]triazolo[1,5-a]pyridin-7-yl]methyl}cyclopropanecarboxamide], 135 nM.
`N#Cc1ccc(-c2cc(C(=O)NC3COC3)cc3ncnn23)cc1` [Example 68, 5-(4-cyanophenyl)-N-(oxetan-3-yl)-[1,2,4]triazolo[1,5-a]pyridine-7-carboxamide] displayed an IC50 of 1880 nM.
To `N#Cc1ccc(-c2cc(N3CCC[C@H]3CN3CCCC3)nc3ncnn23)cc1` [Example 75, 4-{5-[(2S)-2-(pyrrolidin-1-ylmethyl)pyrrolidin-1-yl]-[1,2,4]triazolo[1,5-a]pyrimidin-7-yl}benzonitrile] belongs 2160 nM.
The compound `N#Cc1ccc(-c2cccc3ncnn23)c(Br)c1` [Example 36, 3-bromo-4-{[1,2,4]triazolo[1,5-a]pyridin-5-yl}benzonitrile] had an IC50 of 67 nM.
In the case of `COc1cccc(CNC(=O)c2cc(-c3ccc(C#N)cc3)n3ncnc3c2)c1` [Example 57, 5-(4-cyanophenyl)-N-[(3-methoxyphenyl)methyl]-[1,2,4]triazolo[1,5-a]pyridine-7-carboxamide], the IC50 worked out at 445 nM.
`N#Cc1cc(F)c(-c2cc(N)cc3ncnn23)c(F)c1` [Example 255, 4-{7-Amino-[1,2,4]triazolo[1,5-a]pyridin-5-yl}-3,5-difluorobenzonitrile]: the IC50 amounted to 157 nM.
Compound `N#Cc1ccc(-c2cc(NCC3CC3)cc3ncnn23)cc1` [Example 101, 4-{7-[(cyclopropylmethyl)amino]-[1,2,4]triazolo[1,5-a]pyridin-5-yl}benzonitrile] displayed an IC50 of 9 nM.
